Binding of CDR-mutated scFvs to a peptide of the spike HR2 region

Source: Engelhart et al. 2022 (doi:10.1038/s41597-022-01779-4), MIT Lincoln Laboratory and A-Alpha Bio; data file from the FLAb repository.

Antigen: PDVDLGDISGINAS, a 14-residue peptide of the SARS-CoV-2 spike HR2 region.

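Phage display of a naive human antibody library on the peptide gave the parent. Variants in AAYL49 differ from the parent at up to three CDR positions; double and triple changes were sampled at random. Affinity was read by AlphaSeq, a pooled yeast mating assay with surface-displayed partners. Pairs that bind mate more often; barcode pairs of the diploids are counted by sequencing. The ratio of observed to expected reads was calibrated, replicate by replicate, on BCL2-family standards whose Kd was known from biolayer interferometry. Each pool was mated in three replicate cultures.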

Parent: Ab-14, a human scFv built as VH, three GGGGS repeats, VL. Only the CDRs of the heavy chain vary.
VH: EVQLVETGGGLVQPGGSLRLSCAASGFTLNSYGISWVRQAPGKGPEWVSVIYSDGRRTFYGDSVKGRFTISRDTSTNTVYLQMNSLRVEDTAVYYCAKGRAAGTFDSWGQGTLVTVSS
VL: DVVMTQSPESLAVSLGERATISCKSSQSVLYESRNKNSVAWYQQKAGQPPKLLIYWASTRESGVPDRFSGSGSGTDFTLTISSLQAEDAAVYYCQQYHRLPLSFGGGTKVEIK

The whole VH of each variant is written out.
All variants listed here change N30 of the VH, counted from its first residue.
Scale: log10 of Kd in nM, estimated from mating counts; low values are strong binders.
A pair that was not seen in that replicate is written "nd"; this usually means weak binding, but a binder can also be missed.
As a blank, each scFv also met three strains without target: over library AAYL49, 15% of these pairings were detected, typically at 4.06 and seldom below 2.83.

For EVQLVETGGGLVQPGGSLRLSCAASGFTLGSYGISWVRQAPGKGPEWVSVIYSDGRRTFYGDSVCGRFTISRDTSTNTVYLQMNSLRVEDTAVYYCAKRRAAGTFDSWGQGTLVTVSS, the assay gave 3.00, 3.15, 2.86. Variant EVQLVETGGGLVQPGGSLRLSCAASGFTLESYGISWVRQAPGKGPEWVSVIYSDGRRTFENDSVKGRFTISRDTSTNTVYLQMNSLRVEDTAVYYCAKGRAAGTFDSWGQGTLVTVSS showed 3.82, 3.45, 3.26. Variant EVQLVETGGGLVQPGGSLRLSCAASGATLESSGISWVRQAPGKGPEWVSVIYSDGRRTFYGDSVKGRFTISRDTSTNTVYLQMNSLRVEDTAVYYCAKGRAAGTFDSWGQGTLVTVSS gave nd, nd, 4.61. Variant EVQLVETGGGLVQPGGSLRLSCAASGFSTGSYGISWVRQAPGKGPEWVSVIYSDGRRTFYGDSVKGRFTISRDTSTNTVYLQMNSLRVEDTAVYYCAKGRAAGTFDSWGQGTLVTVSS showed 2.34, 3.55, 2.07. Variant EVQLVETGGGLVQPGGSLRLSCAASGFTLQSYGISWVRQAPGKGPEWVSVIYSDGRRTFYGDSVKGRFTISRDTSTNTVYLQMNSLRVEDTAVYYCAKGRAAGTFDSWGQGTLVTVSS gave 3.42, 2.80, 4.06. Variant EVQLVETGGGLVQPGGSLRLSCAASGFTLDSYGISWVRQAPGKGPEWVSVIYSDGARTFRGDSVKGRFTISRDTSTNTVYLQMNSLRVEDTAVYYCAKGRAAGTFDSWGQGTLVTVSS gave nd, 3.41, nd.

For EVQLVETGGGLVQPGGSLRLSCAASGFTLHSYGISWVRQAPGKGPEWVSVIYSDGCRTFYGCSVKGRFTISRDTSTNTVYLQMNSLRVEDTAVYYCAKGRAAGTFDSWGQGTLVTVSS, the assay gave nd, nd, nd. Variant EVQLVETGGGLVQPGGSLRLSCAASGFTLAWYGISWVRQAPGKGPEWVSVIYSDGRRTFYGDSVKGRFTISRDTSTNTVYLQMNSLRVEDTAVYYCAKGRARGTFDSWGQGTLVTVSS showed nd, nd, nd. Variant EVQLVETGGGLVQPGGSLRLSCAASGFTLLSYGISWVRQAPGKGPEWVSVIYSDIRRTFYGDSVKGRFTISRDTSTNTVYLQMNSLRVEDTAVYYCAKGRKAGTFDSWGQGTLVTVSS showed 4.49, 3.04, nd. Variant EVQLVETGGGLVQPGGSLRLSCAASGFTLHSYGISWVRQAPGKGPEWVSVWYSDGRRTFYGDSVKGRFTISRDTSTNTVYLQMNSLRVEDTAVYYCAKGTAAGTFDSWGQGTLVTVSS gave nd, nd, nd. With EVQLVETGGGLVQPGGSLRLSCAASGFTLSSYGISWVRQAPGKGPEWVSVIYSDGRRTFYQDSVKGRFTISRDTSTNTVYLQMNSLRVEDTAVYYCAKGRAATTFDSWGQGTLVTVSS the result was 1.15, 1.08, 0.98. For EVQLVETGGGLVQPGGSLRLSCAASGFTLASYGISWVRQAPGKGPEWVSVIYSDGRRTFDGDSVKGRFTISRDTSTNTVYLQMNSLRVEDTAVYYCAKGRAAGTFDSWGQGTLVTVSS, the assay gave nd, 3.97, 4.70.

Variant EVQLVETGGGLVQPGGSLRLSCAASGFTLFSYGISWVRQAPGKGPEWVSIIYSDGARTFYGDSVKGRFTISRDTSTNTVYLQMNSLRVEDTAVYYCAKGRAAGTFDSWGQGTLVTVSS showed 2.24, nd, nd. For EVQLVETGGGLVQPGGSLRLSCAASGFTLFSYGISWVRQAPGKGPEWVSVPYSDGGRTFYGDSVKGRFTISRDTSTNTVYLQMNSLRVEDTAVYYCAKGRAAGTFDSWGQGTLVTVSS, the assay gave 3.38, nd, nd. For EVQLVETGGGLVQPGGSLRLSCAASGFTLASYGISWVRQAPGKGPEWVSVIYSDGRRTFYGDSVKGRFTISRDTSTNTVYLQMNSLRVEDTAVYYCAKGRAAGTFDSWGQGTLVTVSS, the assay gave 1.33, 1.44, 1.98. Variant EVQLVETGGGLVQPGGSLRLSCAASGFTLISYGISWVRQAPGKGPEWVSVIYSDGRRTFYGDRVKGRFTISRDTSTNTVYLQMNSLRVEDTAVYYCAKGRAAGTFDTWGQGTLVTVSS showed nd, nd, nd. Variant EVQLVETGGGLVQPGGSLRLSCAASGFTLFSYGISWVRQAPGKGPEWVSVIYSDHRQTFYGDSVKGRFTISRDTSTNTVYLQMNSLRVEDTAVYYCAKGRAAGTFDSWGQGTLVTVSS gave nd, nd, nd. With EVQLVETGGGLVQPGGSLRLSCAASGFTLHSYGISWVRQAPGKGPEWVSVIYSDGRMTIYGDSVKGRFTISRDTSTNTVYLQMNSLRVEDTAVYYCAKGRAAGTFDSWGQGTLVTVSS the result was nd, 3.95, nd.

Variant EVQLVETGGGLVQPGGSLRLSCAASGFTLESYGISWVRQAPGKGPEWVSVIYSDGQRTFYGDSVKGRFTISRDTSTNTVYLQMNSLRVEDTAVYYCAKGVAAGTFDSWGQGTLVTVSS gave nd, nd, nd. For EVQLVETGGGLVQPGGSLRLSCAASGFTMESYGISWVRQAPGKGPEWVSVIYSDGRRTFYGDSVKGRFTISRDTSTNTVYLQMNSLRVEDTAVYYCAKERAAGTFDSWGQGTLVTVSS, the assay gave 4.06, 4.36, nd. Variant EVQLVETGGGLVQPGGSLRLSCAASGFTLASYGGNWVRQAPGKGPEWVSVIYSDGRRTFYGDSVKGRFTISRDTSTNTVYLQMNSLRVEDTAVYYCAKGRAAGTFDSWGQGTLVTVSS gave nd, nd, nd. Variant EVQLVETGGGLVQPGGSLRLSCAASGFTLDSYGISWVRQAPGKGPEWVSVIYSDGRRTFYGDSVNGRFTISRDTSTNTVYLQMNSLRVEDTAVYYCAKGRGAGTFDSWGQGTLVTVSS showed 2.26, 2.36, 2.42. Variant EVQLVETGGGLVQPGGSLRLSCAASGFTLISYGISWVRQAPGKGPEWVSVIYSDGRRTFAGDSVKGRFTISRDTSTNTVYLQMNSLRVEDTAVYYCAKGRAAGTFDQWGQGTLVTVSS showed 6.18, 4.85, nd. Variant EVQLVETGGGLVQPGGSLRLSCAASGFTLTSYGISWVRQAPGKGPEWVSVMYSDGRRTFYGDSKKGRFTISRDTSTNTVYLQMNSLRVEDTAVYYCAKGRAAGTFDSWGQGTLVTVSS gave nd, nd, nd.

Picked from the list: the 4 lowest averages where every replicate gave a value.

{"VH": "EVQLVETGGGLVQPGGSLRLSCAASGFTLSSYGISWVRQAPGKGPEWVSVIYSDGRRTFYQDSVKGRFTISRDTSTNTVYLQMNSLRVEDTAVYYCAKGRAATTFDSWGQGTLVTVSS", "log10 Kd, replicates": "1.15, 1.08, 0.98"}
{"VH": "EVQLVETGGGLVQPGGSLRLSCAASGFTLASYGISWVRQAPGKGPEWVSVIYSDGRRTFYGDSVKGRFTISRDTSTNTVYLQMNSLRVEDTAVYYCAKGRAAGTFDSWGQGTLVTVSS", "log10 Kd, replicates": "1.33, 1.44, 1.98"}
{"VH": "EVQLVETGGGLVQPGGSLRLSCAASGFTLDSYGISWVRQAPGKGPEWVSVIYSDGRRTFYGDSVNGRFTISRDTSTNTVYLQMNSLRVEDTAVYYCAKGRGAGTFDSWGQGTLVTVSS", "log10 Kd, replicates": "2.26, 2.36, 2.42"}
{"VH": "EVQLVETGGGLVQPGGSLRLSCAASGFSTGSYGISWVRQAPGKGPEWVSVIYSDGRRTFYGDSVKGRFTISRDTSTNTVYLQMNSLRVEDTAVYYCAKGRAAGTFDSWGQGTLVTVSS", "log10 Kd, replicates": "2.34, 3.55, 2.07"}

In this assay the parent's reference entry averaged 0.65; its copy inside this library read 4.11 (one replicate of three).